Molecular target: RIPK1 (Homo sapiens, UniProt Q13546)
Assay: RIPK1 degradation Western Blot assay
Assay type: cell-based
Settings: read-out: Degradation Activity (DC50, concentration at which 50% of RIPK1 kinase has been degraded), human cells, 24 h incubation at 37° C.

By UniProt entry, the sequences of proteins in these tests, tags left out.
UniProt Q13546, whole entry: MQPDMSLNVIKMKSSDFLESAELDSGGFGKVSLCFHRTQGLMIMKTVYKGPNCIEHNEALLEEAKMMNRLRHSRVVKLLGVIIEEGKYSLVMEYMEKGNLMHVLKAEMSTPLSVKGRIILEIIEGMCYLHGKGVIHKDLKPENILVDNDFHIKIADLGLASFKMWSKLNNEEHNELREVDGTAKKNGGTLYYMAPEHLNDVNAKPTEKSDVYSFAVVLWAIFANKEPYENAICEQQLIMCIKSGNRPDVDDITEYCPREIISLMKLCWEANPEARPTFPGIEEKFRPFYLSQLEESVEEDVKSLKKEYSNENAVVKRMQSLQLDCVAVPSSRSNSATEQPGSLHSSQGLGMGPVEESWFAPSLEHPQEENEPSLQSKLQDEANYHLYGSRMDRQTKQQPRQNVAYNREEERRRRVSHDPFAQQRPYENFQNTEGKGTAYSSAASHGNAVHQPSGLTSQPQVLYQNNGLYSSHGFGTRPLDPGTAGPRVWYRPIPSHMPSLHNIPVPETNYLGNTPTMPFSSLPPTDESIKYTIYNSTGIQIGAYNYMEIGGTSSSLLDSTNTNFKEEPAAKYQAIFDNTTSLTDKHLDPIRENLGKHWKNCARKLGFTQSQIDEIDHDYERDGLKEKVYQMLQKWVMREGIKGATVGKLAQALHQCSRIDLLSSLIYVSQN

With Cc1ncsc1-c1ccc([C@H](C)NC(=O)[C@@H]2C[C@@H](O)CN2C(=O)[C@@H](NC(=O)CCOCCOCCOCCOCCNC(=O)c2ccc(-c3cc(N4CCC(C(=O)N5N=CCC5c5ccccc5)CC4)ncn3)cc2)C(C)(C)C)cc1 (some centres unmarked) as the molecule, how does the DC50 read?
Its DC50 is over 10000 nM.

How did the DC50 turn out when Cc1ncsc1-c1ccc([C@H](C)NC(=O)[C@@H]2C[C@@H](O)CN2C(=O)[C@@H](NC(=O)CCCCN2CCC(C#Cc3ccc(C(=O)NCCCn4cc(-c5ccc6c(c5)CCN6C(=O)Cc5cccc(OC(F)(F)F)c5)c5c(N)ncnc54)cc3)CC2)C(C)(C)C)cc1 was run?
The DC50 was under 1000 nM.

Cc1ncsc1-c1ccc([C@H](C)NC(=O)[C@@H]2C[C@@H](O)CN2C(=O)[C@@H](NC(=O)CCOCCOCCOCCC(=O)NCCCn2cc(-c3ccc4c(c3)CCN4C(=O)Cc3cccc(OC(F)(F)F)c3)c3c(N)ncnc32)C(C)(C)C)cc1 was tested. Which DC50 did it give?
Its DC50 is under 1000 nM.

For Nc1ncnc2c1c(-c1ccc3c(c1)CCN3C(=O)Cc1cccc(OC(F)(F)F)c1)cn2CCCNC(=O)CCCCCCCCNc1cc2c(cc1F)C(=O)N(C1CCC(=O)NC1=O)C2=O (centres unmarked), which DC50 is on record?
The DC50 was under 1000 nM.

Cc1ncsc1-c1ccc([C@H](C)NC(=O)[C@@H]2C[C@@H](O)CN2C(=O)[C@@H](NC(=O)CCCCCn2cc(CCCCC(=O)NCCCn3cc(-c4ccc5c(c4)CCN5C(=O)Cc4cccc(OC(F)(F)F)c4)c4c(N)ncnc43)nn2)C(C)(C)C)cc1 was tested. Which DC50 did it give?
The DC50 was under 1000 nM.

Which DC50 does the source give for Cc1ncsc1-c1ccc([C@H](C)NC(=O)[C@@H]2C[C@@H](O)CN2C(=O)[C@@H](NC(=O)CCCCCCC(=O)NCCCn2cc(-c3ccc4c(c3)CCN4C(=O)Cc3cccc(OC(F)(F)F)c3)c3c(N)ncnc32)C(C)(C)C)cc1 here?
The DC50 was under 1000 nM.

For Cn1c(=O)n(C2CCC(=O)NC2=O)c2ccc(CCC(=O)NCCCCC(=O)NCCCn3cc(-c4ccc5c(c4)CCN5C(=O)Cc4cccc(OC(F)(F)F)c4)c4c(N)ncnc43)cc21 (centres unmarked), which DC50 is on record?
The DC50 was 1000 to 10000 nM.

How did the DC50 turn out when Cc1ncsc1-c1ccc(C(CC(=O)NCCOCCOCCOCCC(=O)NCCCn2cc(-c3ccc4c(c3)CCN4C(=O)Cc3cccc(OC(F)(F)F)c3)c3c(N)ncnc32)NC(=O)C2CC(O)CN2C(=O)C(NC(=O)C2(F)CC2)C(C)(C)C)cc1 (centres unmarked) was run?
Its DC50 is under 1000 nM.

With Cc1ncsc1-c1ccc([C@H](CC(=O)NCCCCCCCCCCC(=O)NCCCCCCCn2cc(-c3ccc4c(c3)CCN4C(=O)Cc3cccc(OC(F)(F)F)c3)c3c(N)ncnc32)NC(=O)[C@@H]2C[C@@H](O)CN2C(=O)[C@@H](NC(=O)C2(F)CC2)C(C)(C)C)cc1 as the molecule, how does the DC50 read?
Its DC50 is under 1000 nM.

With Cc1ncsc1-c1ccc(C(CC(=O)NCCCCCCC(=O)NCCCn2cc(-c3ccc4c(c3)CCN4C(=O)Cc3cccc(OC(F)(F)F)c3)c3c(N)ncnc32)NC(=O)C2CC(O)CN2C(=O)C(NC(=O)C2(F)CC2)C(C)(C)C)cc1 (centres unmarked) as the molecule, how does the DC50 read?
Its DC50 is under 1000 nM.

Nc1ncnc2c1c(-c1ccc3c(c1)CCN3C(=O)Cc1cccc(OC(F)(F)F)c1)cn2CCCNC(=O)CCCCCCCCNC(=O)CNc1ccc(C(=O)NC2CCC(=O)NC2=O)nc1 (centres unmarked) was tested. Which DC50 did it give?
Its DC50 is 1000 to 10000 nM.

Nc1ncnc2c1c(-c1ccc3c(c1)CCN3C(=O)Cc1cccc(OC(F)(F)F)c1)cn2CCCNC(=O)CCCCCCCCNC(=O)C1CCN(c2ccc(C(=O)NC3CCC(=O)NC3=O)cn2)CC1 (centres unmarked) was tested. Which DC50 did it give?
Its DC50 is 1000 to 10000 nM.

How did the DC50 turn out when O=C(NCCOCCOCCOCCOCCC(=O)N1CCC(C(=O)N2N=CCC2c2ccccc2)CC1)[C@@H]1NC2(CCCCC2)[C@@]2(C(=O)Nc3cc(Cl)ccc32)[C@H]1c1cccc(Cl)c1F (some centres unmarked) was run?
Its DC50 is 1000 to 10000 nM.

Which DC50 does the source give for Cc1ncsc1-c1ccc([C@H](C)NC(=O)[C@@H]2C[C@@H](O)CN2C(=O)[C@@H](NC(=O)CCCCn2cc(CCCC(=O)NCCCn3cc(-c4ccc5c(c4)CCN5C(=O)Cc4cccc(OC(F)(F)F)c4)c4c(N)ncnc43)nn2)C(C)(C)C)cc1 here?
The DC50 was under 1000 nM.

Which DC50 does the source give for Nc1ncnc2c1c(-c1ccc3c(c1)CCN3C(=O)Cc1cccc(OC(F)(F)F)c1)cn2CCCCCCCNC(=O)CCCCCCCCCCNc1cccc2c1C(=O)N(C1CCC(=O)NC1=O)C2=O (centres unmarked) here?
The DC50 was under 1000 nM.

How did the DC50 turn out when CNC(=O)C[C@H](NC(=O)[C@@H]1C[C@@H](O)CN1C(=O)[C@@H](NC(=O)CCCCCCCCCCC(=O)NCCCn1cc(-c2ccc3c(c2)CCN3C(=O)Cc2cccc(OC(F)(F)F)c2)c2c(N)ncnc21)C(C)(C)C)c1ccc(-c2scnc2C)cc1 was run?
The DC50 was 1000 to 10000 nM.

With Nc1ncnc2c1c(-c1ccc3c(c1)CCN3C(=O)Cc1cccc(OC(F)(F)F)c1)cn2CCCNC(=O)CCCCCCCCCCNc1cc2c(cc1F)C(=O)N(C1CCC(=O)NC1=O)C2=O (centres unmarked) as the molecule, how does the DC50 read?
Its DC50 is under 1000 nM.

Which DC50 does the source give for Cc1ncsc1-c1ccc([C@H](C)NC(=O)[C@@H]2C[C@@H](O)CN2C(=O)[C@@H](NC(=O)CCCCCCCCCCC(=O)N2CCC(C(=O)N3N=CCC3c3ccccc3)CC2)C(C)(C)C)cc1 (some centres unmarked) here?
Its DC50 is over 10000 nM.

With Nc1ncnc2c1c(-c1ccc3c(c1)CCN3C(=O)Cc1cccc(OC(F)(F)F)c1)cn2CCCNC(=O)CCCCCCCCCCNC(=O)COc1cccc(C2CCC(=O)NC2=O)c1 (centres unmarked) as the molecule, how does the DC50 read?
The DC50 was 1000 to 10000 nM.

How did the DC50 turn out when Cc1ncsc1-c1ccc([C@H](C)NC(=O)[C@@H]2C[C@@H](O)CN2C(=O)[C@@H](NC(=O)CCCCCCCCCCCCC(=O)NCCCn2cc(-c3ccc4c(c3)CCN4C(=O)Cc3cccc(OC(F)(F)F)c3)c3c(N)ncnc32)C(C)(C)C)cc1 was run?
The DC50 was under 1000 nM.

How did the DC50 turn out when Cc1ncsc1-c1ccc([C@H](C)NC(=O)[C@@H]2C[C@@H](O)CN2C(=O)[C@@H](NC(=O)CCOCCOCCOCCOCCOCCn2cc(-c3ccc4c(c3)CCN4C(=O)Cc3cccc(OC(F)(F)F)c3)c3c(N)ncnc32)C(C)(C)C)cc1 was run?
The DC50 was under 1000 nM.

For Nc1ncnc2c1c(-c1ccc3c(c1)CCN3C(=O)Cc1cccc(OC(F)(F)F)c1)cn2CCCNC(=O)CCCCCCNC(=O)CN1CCC(c2ccc(NC3CCC(=O)NC3=O)cc2)CC1 (centres unmarked), which DC50 is on record?
Its DC50 is under 1000 nM.

Which DC50 does the source give for Cn1c(=O)n(C2CCC(=O)NC2=O)c2ccc(CCC(=O)NCCCCCCC(=O)NCCCn3cc(-c4ccc5c(c4)CCN5C(=O)Cc4cccc(OC(F)(F)F)c4)c4c(N)ncnc43)cc21 (centres unmarked) here?
The DC50 was under 1000 nM.

How did the DC50 turn out when Cc1ncsc1-c1ccc([C@H](C)NC(=O)[C@@H]2C[C@@H](O)CN2C(=O)[C@@H](NC(=O)CCCCC(=O)NCCCn2cc(-c3ccc4c(c3)CCN4C(=O)Cc3cccc(OC(F)(F)F)c3)c3c(N)ncnc32)C(C)(C)C)cc1 was run?
The DC50 was 1000 to 10000 nM.

Which DC50 does the source give for Nc1ncnc2c1c(-c1ccc3c(c1)CCN3C(=O)Cc1cccc(OC(F)(F)F)c1)cn2CCCNC(=O)CCCCCCCCNc1cccc2c1C(=O)N(C1CCC(=O)NC1=O)C2=O (centres unmarked) here?
Its DC50 is under 1000 nM.

Which DC50 does the source give for Cc1ncsc1-c1ccc(C(CC(=O)NCCCCCCCCCCC(=O)NCCCn2cc(-c3ccc4c(c3)CCN4C(=O)Cc3cccc(OC(F)(F)F)c3)c3c(N)ncnc32)NC(=O)C2CC(O)CN2C(=O)C(NC(=O)C2(F)CC2)C(C)(C)C)cc1 (centres unmarked) here?
Its DC50 is under 1000 nM.

Which DC50 does the source give for Nc1ncnc2c1c(-c1ccc3c(c1)CCN3C(=O)Cc1cccc(OC(F)(F)F)c1)cn2CCCNC(=O)CCCCCCCCCCNC(=O)C1CCN(c2cncc(C(=O)NC3CCC(=O)NC3=O)c2)CC1 (centres unmarked) here?
Its DC50 is under 1000 nM.

How did the DC50 turn out when O=C(NCCOCCOCCOCCC(=O)N1CCC(C(=O)N2N=CCC2c2ccccc2)CC1)[C@@H]1NC2(CCCCC2)[C@@]2(C(=O)Nc3cc(Cl)ccc32)[C@H]1c1cccc(Cl)c1F (some centres unmarked) was run?
The DC50 was 1000 to 10000 nM.

Which DC50 does the source give for Cc1ncsc1-c1ccc(C(CC(=O)NCCOCCOCCC(=O)NCCCn2cc(-c3ccc4c(c3)CCN4C(=O)Cc3cccc(OC(F)(F)F)c3)c3c(N)ncnc32)NC(=O)C2CC(O)CN2C(=O)C(NC(=O)C2(F)CC2)C(C)(C)C)cc1 (centres unmarked) here?
Its DC50 is under 1000 nM.
